This is a selection: effects in other tests are not listed, and their absence says nothing.
Test: Absorption and distribution of [14C]TNT in sheep
Details: oral 35.5 mg
[1] = average of wether 368 and 370, at slaughter

Substance: 2,4,6-trinitro-[^14C]toluene
- % of [14C]TNT dose in cage wash (average of wether 368 and 370): 0.3%
- % of [14C]TNT dose in feces T0-6 (average of wether 368 and 370): 0.2%
- % of [14C]TNT dose in feces T6-12 (average of wether 368 and 370): 3.0%
- % of [14C]TNT dose in feces T12-18 (average of wether 368 and 370): 11.8%
- % of [14C]TNT dose in feces T18-24 (average of wether 368 and 370): 8.7%
- % of [14C]TNT dose in feces T24-32 (average of wether 368 and 370): 13.8%
- % of [14C]TNT dose in feces T32-40 (average of wether 368 and 370): 15.6%
- % of [14C]TNT dose in feces T40-48 (average of wether 368 and 370): 9.0%
- % of [14C]TNT dose in feces T48-60 (average of wether 368 and 370): 10.1%
- % of [14C]TNT dose in feces T60-72 (average of wether 368 and 370): 4.6%
- % of [14C]TNT dose in feces, total (average of wether 368 and 370): 76.6%
- % of [14C]TNT dose in urine T0-6 (average of wether 368 and 370): 12.6%
- % of [14C]TNT dose in urine T6-12 (average of wether 368 and 370): 2.6%
- % of [14C]TNT dose in urine T12-18 (average of wether 368 and 370): 0.7%
- % of [14C]TNT dose in urine T18-24 (average of wether 368 and 370): 0.4%
- % of [14C]TNT dose in urine T24-32 (average of wether 368 and 370): 0.2%
- % of [14C]TNT dose in urine T32-40 (average of wether 368 and 370): 0.2%
- % of [14C]TNT dose in urine T40-48 (average of wether 368 and 370): 0.2%
- % of [14C]TNT dose in urine T48-60 (average of wether 368 and 370): 0.2%
- % of [14C]TNT dose in urine T60-72 (average of wether 368 and 370): 0.1%
- % of [14C]TNT dose in urine, total (average of wether 368 and 370): 17.1%
- total recovery (%) of [14C]TNT dose (average of wether 368 and 370): 99.3%
- % of [14C]TNT dose in tissues: adipose [1]: 0.00%
- % of [14C]TNT dose in tissues: bile [1]: 0.00%
- % of [14C]TNT dose in tissues: blood [1]: 0.00%
- % of [14C]TNT dose in tissues: bone [1]: 0.03%
- % of [14C]TNT dose in tissues: brain [1]: 0.00%
- % of [14C]TNT dose in tissues: eye [1]: 0.01%
- % of [14C]TNT dose in tissues: heart [1]: 0.00%
- % of [14C]TNT dose in tissues: kidney [1]: 0.01%
- % of [14C]TNT dose in tissues: large intestine content [1]: 2.40%
- % of [14C]TNT dose in tissues: large intestine tissue [1]: 0.02%
- % of [14C]TNT dose in tissues: liver [1]: 0.07%
- % of [14C]TNT dose in tissues: lung [1]: 0.01%
- % of [14C]TNT dose in tissues: remainder of carcass [1]: 0.03%
- % of [14C]TNT dose in tissues: rumen content [1]: 2.60%
- % of [14C]TNT dose in tissues: rumen tissue [1]: 0.06%
- % of [14C]TNT dose in tissues: skeletal muscle [1]: 0.02%
- % of [14C]TNT dose in tissues: skin [1]: 0.07%
- % of [14C]TNT dose in tissues: small intestine content [1]: 0.11%
- % of [14C]TNT dose in tissues: small intestine tissue [1]: 0.02%
- % of [14C]TNT dose in tissues: spleen [1]: 0.00%
- % of [14C]TNT dose in tissues: thyroid [1]: 0.00%
- % of [14C]TNT dose in cage wash (wether 367): 0.4%
- % of [14C]TNT dose in feces T0-6 (wether 367): 0.2%
- % of [14C]TNT dose in feces T6-12 (wether 367): 0.1%
- % of [14C]TNT dose in feces T12-18 (wether 367): 0.1%
- % of [14C]TNT dose in feces T18-24 (wether 367): 0.1%
- % of [14C]TNT dose in feces T24-32 (wether 367): 0.0%
- % of [14C]TNT dose in feces T32-40 (wether 367): 0.1%
- % of [14C]TNT dose in feces T40-48 (wether 367): 0.0%
- % of [14C]TNT dose in feces T48-60 (wether 367): 0.5%
- % of [14C]TNT dose in feces T60-72 (wether 367): 3.9%
- % of [14C]TNT dose in feces, total (wether 367): 5.0%
- % of [14C]TNT dose in urine T0-6 (wether 367): 16.8%
- % of [14C]TNT dose in urine T6-12 (wether 367): 9.5%
- % of [14C]TNT dose in urine T12-18 (wether 367): 3.2%
- % of [14C]TNT dose in urine T18-24 (wether 367): 2.2%
- % of [14C]TNT dose in urine T24-32 (wether 367): 0.5%
- % of [14C]TNT dose in urine T32-40 (wether 367): 0.0%
- % of [14C]TNT dose in urine T40-48 (wether 367): 0.7%
- % of [14C]TNT dose in urine T48-60 (wether 367): 0.3%
- % of [14C]TNT dose in urine T60-72 (wether 367): 0.4%
- % of [14C]TNT dose in urine, total (wether 367): 33.6%
- total recovery (%) of [14C]TNT dose (wether 367): 102.1%
- % of [14C]TNT dose in tissues, total (wether 367, at slaughter): 63.09%
- % of [14C]TNT dose in tissues: adipose (wether 367, at slaughter): 0.00%
- % of [14C]TNT dose in tissues: bile (wether 367, at slaughter): 0.01%
- % of [14C]TNT dose in tissues: blood (wether 367, at slaughter): 0.00%
- % of [14C]TNT dose in tissues: bone (wether 367, at slaughter): 0.24%
- % of [14C]TNT dose in tissues: brain (wether 367, at slaughter): 0.00%
- % of [14C]TNT dose in tissues: eye (wether 367, at slaughter): 0.02%
- % of [14C]TNT dose in tissues: heart (wether 367, at slaughter): 0.01%
- % of [14C]TNT dose in tissues: kidney (wether 367, at slaughter): 0.03%
- % of [14C]TNT dose in tissues: large intestine content (wether 367, at slaughter): 8.80%
- % of [14C]TNT dose in tissues: large intestine tissue (wether 367, at slaughter): 0.14%
- % of [14C]TNT dose in tissues: liver (wether 367, at slaughter): 0.19%
- % of [14C]TNT dose in tissues: lung (wether 367, at slaughter): 0.03%
- % of [14C]TNT dose in tissues: remainder of carcass (wether 367, at slaughter): 0.31%
- % of [14C]TNT dose in tissues: rumen content (wether 367, at slaughter): 51.18%
- % of [14C]TNT dose in tissues: rumen tissue (wether 367, at slaughter): 0.93%
- % of [14C]TNT dose in tissues: skeletal muscle (wether 367, at slaughter): 0.47%
- % of [14C]TNT dose in tissues: skin (wether 367, at slaughter): 0.38%
- % of [14C]TNT dose in tissues: small intestine content (wether 367, at slaughter): 0.26%
- % of [14C]TNT dose in tissues: small intestine tissue (wether 367, at slaughter): 0.08%
- % of [14C]TNT dose in tissues: spleen (wether 367, at slaughter): 0.01%
- % of [14C]TNT dose in tissues: thyroid (wether 367, at slaughter): 0.00%

From US20110052537A1, “NITRO-BASED EXPLOSIVE REMEDIATION” (published 2011)
